Measured values reported in patent US12258355B2, “Probes for imaging huntingtin protein” (CHDI Foundation, Inc., priority 2014, dated 2025).
pIC50: −log10 of the molar value.

Chains of the proteins cited; added tags and fusions are not shown. A line that says so, or that is headed by a name, gives the form on record, which may keep a tag or linker. Residues count along the entry.
UniProt P42858, 1-3142 with tags or gaps with the stated changes: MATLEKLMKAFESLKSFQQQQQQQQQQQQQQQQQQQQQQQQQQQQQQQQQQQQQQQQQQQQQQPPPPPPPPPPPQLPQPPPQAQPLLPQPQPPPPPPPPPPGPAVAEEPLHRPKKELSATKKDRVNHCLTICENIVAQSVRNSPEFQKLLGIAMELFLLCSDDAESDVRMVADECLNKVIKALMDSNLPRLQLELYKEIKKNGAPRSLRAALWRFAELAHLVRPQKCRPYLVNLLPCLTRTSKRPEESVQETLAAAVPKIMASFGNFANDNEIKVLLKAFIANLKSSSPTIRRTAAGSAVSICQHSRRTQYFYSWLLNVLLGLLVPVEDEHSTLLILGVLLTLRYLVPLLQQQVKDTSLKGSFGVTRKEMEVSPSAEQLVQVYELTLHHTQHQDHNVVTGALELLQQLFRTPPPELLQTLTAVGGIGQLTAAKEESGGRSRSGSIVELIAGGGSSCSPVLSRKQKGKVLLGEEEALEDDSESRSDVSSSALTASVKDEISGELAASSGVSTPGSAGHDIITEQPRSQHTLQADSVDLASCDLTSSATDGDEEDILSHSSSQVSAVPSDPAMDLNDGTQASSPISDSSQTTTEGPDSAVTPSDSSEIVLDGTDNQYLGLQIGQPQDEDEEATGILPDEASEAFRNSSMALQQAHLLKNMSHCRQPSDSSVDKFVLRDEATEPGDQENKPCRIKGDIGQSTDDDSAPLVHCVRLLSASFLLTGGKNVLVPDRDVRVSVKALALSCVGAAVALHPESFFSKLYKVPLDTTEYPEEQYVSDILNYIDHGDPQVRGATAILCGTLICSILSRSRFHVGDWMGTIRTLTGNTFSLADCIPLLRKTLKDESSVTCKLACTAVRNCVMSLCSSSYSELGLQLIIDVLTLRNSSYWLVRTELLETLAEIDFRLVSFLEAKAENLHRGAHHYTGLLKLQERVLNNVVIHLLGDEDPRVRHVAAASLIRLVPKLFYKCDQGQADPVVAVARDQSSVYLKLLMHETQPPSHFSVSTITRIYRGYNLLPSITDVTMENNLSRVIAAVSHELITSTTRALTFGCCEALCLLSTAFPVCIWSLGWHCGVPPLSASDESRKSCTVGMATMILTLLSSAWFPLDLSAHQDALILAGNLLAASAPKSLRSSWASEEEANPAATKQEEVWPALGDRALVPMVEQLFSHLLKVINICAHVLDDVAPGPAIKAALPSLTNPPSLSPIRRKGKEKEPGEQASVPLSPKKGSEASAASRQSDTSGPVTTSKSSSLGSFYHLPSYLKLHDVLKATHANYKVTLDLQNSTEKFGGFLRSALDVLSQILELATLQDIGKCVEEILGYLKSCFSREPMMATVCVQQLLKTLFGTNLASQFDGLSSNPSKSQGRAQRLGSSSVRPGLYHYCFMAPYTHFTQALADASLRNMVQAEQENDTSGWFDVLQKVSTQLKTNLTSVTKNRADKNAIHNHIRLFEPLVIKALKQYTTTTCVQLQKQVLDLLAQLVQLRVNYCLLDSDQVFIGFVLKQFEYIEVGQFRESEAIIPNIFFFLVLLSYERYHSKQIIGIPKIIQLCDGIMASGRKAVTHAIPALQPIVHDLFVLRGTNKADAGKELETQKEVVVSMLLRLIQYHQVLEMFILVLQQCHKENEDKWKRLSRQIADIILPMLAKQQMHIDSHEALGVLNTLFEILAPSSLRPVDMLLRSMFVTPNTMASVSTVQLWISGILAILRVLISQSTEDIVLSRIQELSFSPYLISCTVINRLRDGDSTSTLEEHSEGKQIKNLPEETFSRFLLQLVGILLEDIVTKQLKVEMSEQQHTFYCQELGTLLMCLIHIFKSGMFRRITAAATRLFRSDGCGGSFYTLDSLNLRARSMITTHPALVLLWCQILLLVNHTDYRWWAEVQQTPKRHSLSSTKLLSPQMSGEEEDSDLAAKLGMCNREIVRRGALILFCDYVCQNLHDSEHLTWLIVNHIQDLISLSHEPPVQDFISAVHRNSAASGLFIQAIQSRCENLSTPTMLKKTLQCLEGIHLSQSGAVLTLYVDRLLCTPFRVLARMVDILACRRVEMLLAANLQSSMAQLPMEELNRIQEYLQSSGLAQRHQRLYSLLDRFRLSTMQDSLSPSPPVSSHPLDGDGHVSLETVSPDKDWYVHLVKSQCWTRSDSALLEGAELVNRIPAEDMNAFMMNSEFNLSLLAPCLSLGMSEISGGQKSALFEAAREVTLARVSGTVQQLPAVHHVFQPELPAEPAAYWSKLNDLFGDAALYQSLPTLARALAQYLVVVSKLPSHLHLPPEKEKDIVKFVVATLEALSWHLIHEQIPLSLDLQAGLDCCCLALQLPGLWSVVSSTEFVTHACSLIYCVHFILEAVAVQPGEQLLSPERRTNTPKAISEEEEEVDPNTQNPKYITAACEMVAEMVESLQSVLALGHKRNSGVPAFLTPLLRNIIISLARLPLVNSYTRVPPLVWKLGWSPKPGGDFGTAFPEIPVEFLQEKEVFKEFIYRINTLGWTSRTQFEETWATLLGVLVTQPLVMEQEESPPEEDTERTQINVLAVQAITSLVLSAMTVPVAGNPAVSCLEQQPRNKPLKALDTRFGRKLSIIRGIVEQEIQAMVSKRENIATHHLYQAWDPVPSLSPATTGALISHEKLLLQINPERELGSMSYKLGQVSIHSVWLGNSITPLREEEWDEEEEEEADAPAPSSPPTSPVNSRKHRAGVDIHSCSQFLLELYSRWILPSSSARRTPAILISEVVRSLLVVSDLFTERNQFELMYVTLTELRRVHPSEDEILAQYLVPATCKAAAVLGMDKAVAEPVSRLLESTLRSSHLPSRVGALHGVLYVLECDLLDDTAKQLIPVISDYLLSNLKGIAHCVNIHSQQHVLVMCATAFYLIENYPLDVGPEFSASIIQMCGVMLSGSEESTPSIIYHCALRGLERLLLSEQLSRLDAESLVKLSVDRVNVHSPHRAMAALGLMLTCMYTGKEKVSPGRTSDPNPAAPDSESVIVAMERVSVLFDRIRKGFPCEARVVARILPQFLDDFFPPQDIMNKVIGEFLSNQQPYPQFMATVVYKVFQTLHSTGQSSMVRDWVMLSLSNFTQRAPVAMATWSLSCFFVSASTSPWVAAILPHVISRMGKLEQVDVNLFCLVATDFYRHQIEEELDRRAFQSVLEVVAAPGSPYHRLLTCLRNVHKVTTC

Each compound was assayed against Q46 protein aggregates (Homo sapiens, UniProt P42858) (assay: Q46 radioligand binding assay (RBA)). Conditions: read-out: RBA IC50 activity, 10 nM ligand [3H3]MK-3328.
Method: Q46 Radioligand Binding Assay
For radioligand binding assays (RBA) GST-Q46 protein was generated based on a previous publication (Scherzinger et al. Cell, Vol. 90, 549-558, Aug. 8, 1997). For experiments 33 μM GST-Q46 was incubated with 150 μg/mL thrombin in assay buffer (150 mM NaCl, 50 mM Tris pH 8.0) and 2 mM CaCl2 for 16 hours at 37° C. Aggregated Q46 was pelleted by centrifugation for 5 minutes at 13,000 rpm in a bench top centrifuge and re-dissolved in the same volume of assay buffer. Test compounds were prepared by titration in DMSO at 11 concentrations from 33 μM to 1 nM. For the RBA, Q46 protein aggregates and test compounds were pre-incubated in assay buffer for 20 minutes at room temperature, in 140 μL/well in a 96-well plate (pp, round bottom). Then, ligand was added in 10 μL/well and incubated for 60 minutes at 37° C. Final assay concentrations were 1 μM to 30 pM test compound, 5 μM Q46 protein (equivalent monomer concentration) and 10 nM ligand [^3H3]MK-3328 (Harrision et al., ACS Med. Chem. Lett., 2 (2011), pp 498-502). Samples were transferred onto GF/B filter plates and washed 2× with 200 μL PBS using a Filtermate Harvester. After drying filter plates for 1 hour at 37° C., the back of the plates were sealed with foil and 30 μL/well scintillation fluid (Packard MicroScint 40) added, incubated for 15 minutes in the dark and counted in a TopCount reader. For analysis, replicate data from independent assay plates were normalized towards 0% and 100% inhibition using control wells of vehicle (0% inhibition) and 3 μM unlabelled MK-3328 (100% inhibition). IC50 values were determined with a sigmoidal inhibition model with four variables (top, bottom, slope, IC50) in a global fit using the normalized replicate data.
Work on COc1ccc(COc2ccc3oc(-c4cnn(C)c4)nc3c2)nc1 yielded a pIC50 greater than 7.00. In the case of COc1ccc(COc2ccc3oc(-c4cncnc4)nc3c2)nc1, the pIC50 was greater than 7.00. In the case of COc1cnc(COc2ccc3oc(-c4ccncc4C#N)cc3c2)cn1, the pIC50 was greater than 7.00.
